# In US10450260B2, “NO- and H2S-releasing compounds” (RESEARCH FOUNDATION OF THE CITY UNIVERSITY OF NEW YORK, priority 2011, dated 2019):
# Tested on: gastric mucosa
# Test: Gastric damage, ulcer index
# Type: in vivo, rat
# Conditions: rats, oral gavage, equimolar doses: ASA 180, NOSH-ASA 477, naproxen 80, NOSH-naproxen 188, sulindac 200, NOSH-sulindac 467 mg/kg; 6 h post-administration; vehicle UI=0
# Experimental: The institutional animal care and research committees approved all experimental procedures described herein. Male Wistar rats (4 per group) weighing 180-200 g were obtained from Charles River Laboratories International (Wilmington, Mass.). The rats were fed standard laboratory chow and water. Rats were fasted for 48 h with free access to drinking water. […] Stomachs were then rapidly removed, cut along the greatest curvature, and rinsed with ice-cold distilled water. The ulcer index (UI) was determined as described by Best et al (Best R, et al. Br J Pharmacol 1984, 82:107-116). Tissues from stomachs were excised and processed for measurement of Prostaglandin E2 (PGE2), malondialdehyde (MDA) and Superoxide dismutase (SOD) activity.
smiles,measurement,value
"COc1ccc2cc([C@H](C)C(=O)O)ccc2c1 [naproxen, reference compound]","gastric damage score, ulcer index (UI)",80
